We go through 13 molecules from patent US5994378A, “Thiazolylbenzofuran derivatives and pharmaceutical compositions containing them” (Fujisawa Pharmaceutical Co., Ltd., priority 1996, dated 1999).

The target of this assay is T1, Leukotriene D4 receptor (Homo sapiens, UniProt Q9Y271).
T1 sequence (Q9Y271 1-337): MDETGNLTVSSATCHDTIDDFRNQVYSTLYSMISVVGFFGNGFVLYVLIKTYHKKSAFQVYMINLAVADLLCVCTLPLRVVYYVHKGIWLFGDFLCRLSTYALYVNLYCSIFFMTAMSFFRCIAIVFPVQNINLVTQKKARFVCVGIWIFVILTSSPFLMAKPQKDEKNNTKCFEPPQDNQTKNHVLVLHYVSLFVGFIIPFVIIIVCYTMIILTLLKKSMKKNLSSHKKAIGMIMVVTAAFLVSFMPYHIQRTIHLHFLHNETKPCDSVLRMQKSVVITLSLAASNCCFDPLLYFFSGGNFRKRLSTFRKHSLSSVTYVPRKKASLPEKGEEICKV
The assay is described as follows: biochemical. The format is binding.

[1] abbreviates: ^3 H-Leukotriene D4 (0.3 nM), human histiocytic lymphoma U937 membranes (100 μg protein/tube), 25° C., 30 minutes.

Read-outs that look alike come from different tables or passages of the source. Where only a bound is given, the exact number is not on record here.

Broadly, the IC50 is the midpoint of a concentration-inhibition curve. High values mean a need for much substance, low ones inhibition by little substance. On to `COc1cccc(COc2ccc3oc(-c4nc(C(C)(C)C)cs4)cc3c2)c1O[C@@H](C)C(=O)O`, for which the 50% inhibitory concentration (IC50) was below 5 nM.

For `Cc1ccc2c(-c3nnn[nH]3)cn(Cc3ccc4oc(-c5nc(C(C)(C)C)cs5)cc4c3)c2c1` [Example 21, 5-{1-{[2-(4-tert-butylthiazol-2-yl)benzofuran-5-yl]methyl}-6-methylindol-3-yl}-1H-tetrazole], under setting [1], the concentration for half-maximal inhibition (IC50) was below 5 nM.

With `Cc1cccc2c(-c3nnn[nH]3)cn(Cc3ccc4oc(-c5nc(C(C)(C)C)cs5)cc4c3)c12` [Example 22-2], under setting [1], the half-inhibitory concentration (IC50) was below 5 nM.

In turn, `CC(C)(C)c1csc(-c2cc3cc(Cn4cc(-c5nnn[nH]5)c5cc(OCc6nnn[nH]6)ccc54)ccc3o2)n1` [Example 22-16] showed an IC50 under setting [1] below 5 nM.

Consider `COc1ccc2c(c1)c(-c1nnn[nH]1)nn2Cc1ccc2oc(-c3nc(C(C)(C)C)cs3)cc2c1` [Example 22-23, 5-{1-{[2-(4-tert-butylthiazol-2-yl)benzofuran-5-yl]methyl}-5-methoxy-1H-indazol-3-yl}-1H-tetrazole], for which the concentration for half-maximal inhibition (IC50) under setting [1] is below 5 nM.

Under setting [1], `CC(C)(C)c1csc(-c2cc3cc(Cn4nc(-c5nnn[nH]5)c5cc(O)ccc54)ccc3o2)n1` [Example 22-24] showed a half-maximal inhibitory concentration (IC50) below 5 nM.

Molecule `Cc1ccc2c(c1)c(-c1nnn[nH]1)nn2Cc1ccc2oc(-c3nc(C(C)(C)C)cs3)cc2c1` [Example 22-27] came in with an IC50 under setting [1] below 5 nM.

Molecule `CC(C)(C)c1csc(-c2cc3cc(Cn4cc(-c5nnn[nH]5)c5cc(OCC(=O)O)ccc54)ccc3o2)n1` [Example 28-3, 5-{1-{[2-(4-tert-butylthiazol-2-yl)benzofuran-5-yl]methyl}-5-(carboxymethoxy)indol-3-yl}-1H-tetrazole] came in with a concentration for half-maximal inhibition (IC50) under setting [1] below 5 nM.

For the molecule `CC(C)(C)c1csc(-c2cc3cc(Cn4cc(-c5nnn[nH]5)c5cc(OCC(=O)N6CCCC6)ccc54)ccc3o2)n1` [Example 34-3], under setting [1], the half-inhibitory concentration (IC50) is below 5 nM.

The molecule `CC(C)(C)c1csc(-c2cc3cc(Cn4cc(-c5nnn[nH]5)c5cc(OCC(=O)N6CCOCC6)ccc54)ccc3o2)n1` [Example 34-5] registered a half-inhibitory concentration (IC50) under setting [1] below 5 nM.

Take `CC(C)(C)c1csc(-c2cc3cc(Cn4cc(-c5nnn[nH]5)c5cc(OCC(=O)N6CCN(C7CCCCC7)CC6)ccc54)ccc3o2)n1` [Example 34-8]: under setting [1], the IC50 is below 5 nM.

Regarding `CC(C)(C)c1csc(-c2cc3cc(Cn4nc(-c5nnn[nH]5)c5cc(OCC(N)=O)ccc54)ccc3o2)n1` [Example 34-10], under setting [1], the IC50 was below 5 nM.

`CNC(=O)COc1ccc2c(c1)c(-c1nnn[nH]1)nn2Cc1ccc2oc(-c3nc(C(C)(C)C)cs3)cc2c1` [Example 34-11] displayed an IC50 under setting [1] below 5 nM.
